# Assay results reported in patent US20150140059A1 (The Regents of the University of California, priority 2012, published 2015).
# System: Lewis rats
# Experiment: Rat posterolateral intertransverse process spinal fusion at L4-L5
# Type: in vivo
# Protocol: Thirty-eight 8-week-old male Lewis rats were purchased from Charles River Laboratories (Wilmington, Mass.) and were maintained and housed at the UCLA vivarium in accordance with regulations set forth by the UCLA Office of Protection of Research Subjects. The study was performed under a protocol approved by the UCLA Animal Research Committee (ARC). All animals were euthanized using a standard CO2 chamber 8 weeks after the spinal fusion procedure, and their spines were excised and stored in 40% ethyl alcohol.
# Animals were pre-medicated with sustained release buprenorphine thirty minutes prior to surgery and anesthetized with 2% isoflurane administered in oxygen (1 L/min). The surgical site was shaved and disinfected with Betadine and 70% ethanol. Posterolateral intertransverse process spinal fusion at L4-L5 was performed as in prior studies (21,22). The L6 vertebral body was identified using the iliac crest as a landmark. A 4-cm longitudinal midline incision was made through the skin and subcutaneous tissue over L4-L5 down to the lumbodorsal fascia. A 2-cm longitudinal paramedial incision was then made in the paraspinal muscles bilaterally to expose the transverse processes of L4-L5, which were decorticated with a high-speed burr. The surgical site was then irrigated with sterile saline, and 5 mm×5 mm×13 mm pieces of collagen sponge (Helistat, Integra Life Sciences) containing dimethyl sulfoxide (DMSO) control, rhBMP-2, or Oxy149 were placed bilaterally, with each implant spanning the transverse processes. The implants were then covered with the overlying paraspinal muscles and the lumbodorsal fascia and skin were closed with 4-0 Prolene sutures (Ethicon, Inc., Somerville, N.J.). Animals were allowed to ambulate, eat, and drink ad libitum immediately after surgery.
# Posteroanterior radiographs of the lumbar spine were taken on each animal at 4, 6, and 8 weeks after surgery using a Faxitron LX60 cabinet radiography system and evaluated blindly by two independent observers employing the following standardized scale: 0, no fusion; 1, unilateral fusion; and 2, complete bilateral fusion. The scores from the observers were added together and only a score of 4 was considered as complete fusion.
# Eight weeks after surgery, animals were euthanized and the spines were surgically removed and evaluated by two blinded independent observers for motion between levels. Nonunion was recorded if motion was observed between the facets or transverse processes on either side. Complete fusion was recorded if no motion was observed bilaterally. Spines were scored as either fused or not fused. Unanimous agreement was required to consider complete fusion.
# Each removed spine was analyzed by high resolution micro-computed tomography (micro-CT), using a SkyScan 1172 scanner (SkyScan, Belgium) with a voxel isotropic resolution of 20 μm and an X-ray energy of 55 kVp and […] to further assess the fusion rate and observe the fusion mass as we have previously reported (15). Three hundred and sixty projections were acquired over an angular range of 180° with steps of 0.5 with an exposure time of 220 msec/slice. Five frames were averaged at each rotation step to get better signal to noise ratio. A 0.5 mm aluminum filter was used to narrow down the X-ray beam frequency in order to minimize beam hardening artifact. Virtual image slices were reconstructed using the cone-beam reconstruction software version 2.6 based on the Feldkamp algorithm (SkyScan). These settings produced serial cross-sectional 1024×1024 pixel images. Sample re-orientation and 2D visualization were performed using DataViewer (SkyScan). 3D visualization was performed using Dolphin Imaging version 11 (Dolphin Imaging & Management Solutions, Chatsworth, Calif.). Fusion was defined as the bilateral presence of bridging bone between the L4 and L5 transverse processes. The reconstructed images were judged to be fused or not fused by two experienced independent observers. […]
# [1] = 5 μg rhBMP-2, at sacrifice (8 weeks)
substance,measurement,setting,value
BMP2: Recombinant human bone morphogenetic protein-2 (rhBMP-2),"bilateral fusion, manual assessment","5 μg rhBMP-2, 8 weeks",all animals
same,"Fusion Rates, Manual Palpation",[1],100%
same,"Fusion Rates, Micro-CT",[1],100%
same,"Fusion Rates, X-ray",[1],100%
same,bilateral fusion on radiographs (animals),"5 μg rhBMP-2, four weeks",8/8
same,"adipocytes within the fusion mass, histology","5 μg rhBMP-2, visual inspection of histological specimens",robust formation of adipocytes
same,trabecular thickness per footnote,"5 μg, micro-CT, 8 weeks",131.131
